Some results are limits rather than exact numbers.

Protein sequences, listed by entry. Tags and fused reporters are not part of them.
UniProt P06239, whole entry: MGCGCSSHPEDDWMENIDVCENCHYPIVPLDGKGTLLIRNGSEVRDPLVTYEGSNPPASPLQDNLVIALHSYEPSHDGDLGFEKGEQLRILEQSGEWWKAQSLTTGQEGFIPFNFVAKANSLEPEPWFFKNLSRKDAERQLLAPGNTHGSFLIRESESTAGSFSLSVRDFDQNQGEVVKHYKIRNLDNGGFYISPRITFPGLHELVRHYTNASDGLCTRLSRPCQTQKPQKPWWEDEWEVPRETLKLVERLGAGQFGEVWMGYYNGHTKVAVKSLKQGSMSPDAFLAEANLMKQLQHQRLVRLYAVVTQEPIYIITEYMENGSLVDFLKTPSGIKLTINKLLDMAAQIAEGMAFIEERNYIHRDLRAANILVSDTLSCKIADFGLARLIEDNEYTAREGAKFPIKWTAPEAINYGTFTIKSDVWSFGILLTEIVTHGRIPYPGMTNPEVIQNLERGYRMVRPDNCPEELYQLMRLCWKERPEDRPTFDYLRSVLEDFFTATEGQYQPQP
UniProt Q99640, whole entry: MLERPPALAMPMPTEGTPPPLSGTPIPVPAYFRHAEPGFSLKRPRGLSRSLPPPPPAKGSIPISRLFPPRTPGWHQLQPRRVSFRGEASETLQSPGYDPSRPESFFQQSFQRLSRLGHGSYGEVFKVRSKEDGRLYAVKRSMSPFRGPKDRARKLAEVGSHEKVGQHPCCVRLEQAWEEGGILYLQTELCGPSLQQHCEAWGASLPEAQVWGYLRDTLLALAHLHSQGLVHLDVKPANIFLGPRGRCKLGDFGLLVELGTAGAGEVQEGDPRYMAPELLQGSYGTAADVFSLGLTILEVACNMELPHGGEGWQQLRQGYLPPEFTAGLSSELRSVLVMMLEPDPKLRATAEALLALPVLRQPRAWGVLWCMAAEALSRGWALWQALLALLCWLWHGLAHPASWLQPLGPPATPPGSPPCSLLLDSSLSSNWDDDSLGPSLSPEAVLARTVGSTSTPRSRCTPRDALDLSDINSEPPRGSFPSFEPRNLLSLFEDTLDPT

In patent US20250388583A1, “COMPOUNDS AND METHOD FOR PKMYT1 INHIBITION” (Engine Biosciences Pte. Ltd., priority 2022, published 2025) one finds IC50 data, which are given here for 8 compounds.

The target in assay [1] is LCK (Homo sapiens (Human), UniProt P06239). Put plainly: In vitro assay: kinase binding to immobilized ligand, captured kinase measured by qPCR. The conditions noted are these: read-out: LCK (IC50 = nM). For orientation: In qPCR the cycle at which signal appears reflects the starting amount.
The target of assay [2] is PKMYT1 (Homo sapiens (Human), UniProt Q99640). Described as above. The conditions noted are these: read-out: PKMYT1 (IC50 = nM).

The term IC50 denotes the concentration needed to halve the response being measured. On to `Cc1c(O)cc(F)c(C)c1-n1c(N)c(C(N)=O)c2cnc(C3CC3)c(Br)c21`, for which the IC50 was less than 50 nM in assay [1] and 100 to 1000 nM in assay [2].
Regarding `Cc1c(O)cc(F)c(C)c1-n1c(N)c(C(N)=O)c2cnc(C(F)(F)F)nc21`, the IC50 in assay [1] and in assay [2] was less than 50 nM in each case.
`Cc1ccc(O)c(C)c1-n1c(N)c(C(N)=O)c2cncc(C#N)c21` [Compound 587, 2-amino-7-cyano-1-(3-hydroxy-2,6-dimethylphenyl)-1H-pyrrolo[3,2-c]pyridine-3-carboxamide]: the IC50 in assay [1] was less than 50 nM.
In the case of `Cc1c(O)cc(F)c(C)c1-n1c(N)c(C(N)=O)c2cnc(C3CC3(C)C)nc21` (stereo not drawn), the IC50 in assay [1] and in assay [2] was less than 50 nM in each case.
As to `Cc1c(O)cc(F)c(C)c1-n1c(N)c(C(N)=O)c2cncc(C#N)c21`, the IC50 in assay [1] and in assay [2] was less than 50 nM throughout.
As to `Cc1ncc2c(C(N)=O)c(N)n(-c3c(C)cc4[nH]c(=O)[nH]c4c3C)c2n1`, the IC50 in assay [1] and in assay [2] was more than 1000 nM in each case.
Consider `Cc1c(O)cc(F)c(C)c1-n1c(N)c(C(N)=O)c2cnc(C[Si](C)(C)C)nc21`, for which the IC50 in assay [1] and in assay [2] was less than 50 nM throughout.
For the compound `Cc1ccc(O)c(C)c1-n1c(N)c(C(N)=O)c2cnc(C[Si](C)(C)C)nc21`, the IC50 in assay [1] and in assay [2] was 50 to 100 nM throughout.
